# CycPeptMPDB entries from one study

Data: CycPeptMPDB; original report Townsend et al. 2020, doi:10.26434/chemrxiv.13335941.v1.

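The data file gives no further conditions (lipid, pH, time, direction or concentration), and values from different papers need not be comparable. The list need not hold all peptides of the study. Peptides that the database sets to -10, its floor, are left out.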

PAMPA is the parallel artificial membrane permeability assay, which has no cells and reads passive diffusion.
Values are log10 P with P in cm/s, so -5 is more permeable than -7.

* CC(C)C[C@@H]1NC(=O)[C@H]2CCCN2C(=O)CN(Cc2ccccc2)C(=O)[C@H](CC(C)C)N(C)C(=O)[C@@H](C)NC(=O)[C@H](Cc2ccccc2)NC1=O: PAMPA -6.49 (log10 cm/s)
* CC(C)C[C@H]1NC(=O)[C@@H]2CCCN2C(=O)CN(Cc2ccccc2)C(=O)[C@@H](CC(C)C)NC(=O)[C@H](C)NC(=O)[C@@H]2CCCN2C(=O)[C@H](Cc2ccccc2)NC1=O: PAMPA -5.95 (log10 cm/s)
* CCCN1CC(=O)N[C@H](CC(C)C)C(=O)N(C)[C@@H](CC(C)C)C(=O)N2CCC[C@H]2C(=O)N(Cc2ccccc2)CC(=O)N[C@@H](Cc2ccccc2)C(=O)N2CCC[C@@H]2C1=O: PAMPA -5.36 (log10 cm/s)
* CC(C)C[C@@H]1NC(=O)[C@H](C)N(C)C(=O)[C@H]2CCCN2C(=O)[C@H](Cc2ccccc2)NC(=O)[C@@H](CC(C)C)N(C)C(=O)[C@@H]2CCCN2C(=O)[C@H](CC(C)C)N(C)C1=O: PAMPA -5.17 (log10 cm/s)
* CC(C)C[C@@H]1NC(=O)[C@H]2CCCN2C(=O)[C@H](CC(C)C)N(C)C(=O)[C@@H](CC(C)C)N(C)C(=O)[C@H](C)NC(=O)[C@@H]2CCCN2C(=O)[C@H](Cc2ccccc2)NC1=O: PAMPA -5.84 (log10 cm/s)
* CC(C)C[C@@H]1C(=O)N[C@@H](Cc2ccccc2)C(=O)N2CCC[C@@H]2C(=O)N(C)[C@H](C)C(=O)N(C)[C@@H](CC(C)C)C(=O)N(Cc2ccccc2)CC(=O)N2CCC[C@@H]2C(=O)N1C: PAMPA -5.75 (log10 cm/s)
* CC(C)C[C@@H]1C(=O)N2CCC[C@@H]2C(=O)N[C@H](CC(C)C)C(=O)N[C@@H](Cc2ccccc2)C(=O)N2CCC[C@@H]2C(=O)N(C)[C@@H](C)C(=O)N(Cc2ccccc2)CC(=O)N1C: PAMPA -5.35 (log10 cm/s)
* CC(C)C[C@@H]1C(=O)N(C)[C@H](CC(C)C)C(=O)N2CCC[C@@H]2C(=O)N(C)[C@@H](CC(C)C)C(=O)N[C@@H](Cc2ccccc2)C(=O)N2CCC[C@H]2C(=O)N(C)[C@H](C)C(=O)N1C: PAMPA -5.12 (log10 cm/s)
* CCCN1CC(=O)N(Cc2ccccc2)CC(=O)N[C@@H](CC(C)C)C(=O)N2CCC[C@H]2C(=O)N(C)[C@@H](CC(C)C)C(=O)N[C@@H](Cc2ccccc2)C(=O)N2CCC[C@H]2C1=O: PAMPA -5.37 (log10 cm/s)
* CC(C)C[C@@H]1NC(=O)[C@@H](CC(C)C)NC(=O)[C@H](C)N(C)C(=O)[C@@H]2CCCN2C(=O)[C@H](Cc2ccccc2)NC(=O)[C@@H](CC(C)C)N(C)C(=O)[C@H]2CCCN2C1=O: PAMPA -5.24 (log10 cm/s)
* CC(C)C[C@@H]1NC(=O)[C@@H](CC(C)C)N(C)C(=O)[C@H](C)N(C)C(=O)[C@H](Cc2ccccc2)NC(=O)CN(Cc2ccccc2)C(=O)[C@@H]2CCCN2C1=O: PAMPA -4.94 (log10 cm/s)
* CC(C)C[C@@H]1NC(=O)[C@H](CC(C)C)N(C)C(=O)[C@H](C)N(C)C(=O)[C@@H]2CCCN2C(=O)[C@H](Cc2ccccc2)NC(=O)[C@@H](CC(C)C)N(C)C(=O)[C@H]2CCCN2C1=O: PAMPA -5.51 (log10 cm/s)
* CC(C)C[C@H]1NC(=O)[C@@H]2CCCN2C(=O)[C@@H](CC(C)C)NC(=O)CN(Cc2ccccc2)C(=O)[C@H](C)N(C)C(=O)[C@H](Cc2ccccc2)NC1=O: PAMPA -5.00 (log10 cm/s)
* CCCN1CC(=O)N[C@@H](CC(C)C)C(=O)N[C@@H](Cc2ccccc2)CC(=O)N2CCC[C@@H]2C(=O)N[C@@H](CC(C)C)C(=O)N[C@@H](Cc2ccccc2)C(=O)N2CCC[C@H]2C1=O: PAMPA -6.81 (log10 cm/s)
* CC(C)C[C@@H]1NC(=O)[C@@H]2CCCN2C(=O)C[C@H](Cc2ccccc2)NC(=O)CN(Cc2ccccc2)C(=O)C[C@H](Cc2ccccc2)NC(=O)[C@@H]2CCCN2C(=O)[C@H](Cc2ccccc2)NC1=O: PAMPA -6.20 (log10 cm/s)
* CC(C)C[C@@H]1NC(=O)[C@H](C)N(C)C(=O)[C@@H]2CCCN2C(=O)[C@H](Cc2ccccc2)NC(=O)[C@@H](CC(C)C)NC(=O)[C@@H]2CCCN2C(=O)C[C@H](Cc2ccccc2)NC1=O: PAMPA -6.20 (log10 cm/s)
* CC(C)C[C@@H]1NC(=O)[C@@H](C)N(C)C(=O)[C@H]2CCCN2C(=O)[C@H](Cc2ccccc2)NC(=O)CN(Cc2ccccc2)C(=O)[C@@H]2CCCN2C(=O)[C@@H](CC(C)C)N(C)C1=O: PAMPA -5.37 (log10 cm/s)
* CCCN1CC(=O)N[C@H](CC(C)C)C(=O)N[C@@H](CC(C)C)C(=O)N2CCC[C@H]2C(=O)N(C)[C@@H](CC(C)C)C(=O)N[C@@H](Cc2ccccc2)C1=O: PAMPA -5.00 (log10 cm/s)
* CC(C)C[C@@H]1NC(=O)[C@@H](C)NC(=O)[C@H](Cc2ccccc2)NC(=O)[C@@H](CC(C)C)NC(=O)[C@@H]2CCCN2C(=O)[C@H](CC(C)C)N(C)C1=O: PAMPA -7.12 (log10 cm/s)
* CC(C)C[C@@H]1C(=O)N[C@@H](Cc2ccccc2)CC(=O)N2CCC[C@@H]2C(=O)N(C)[C@H](CC(C)C)C(=O)N[C@@H](Cc2ccccc2)C(=O)N2CCC[C@@H]2C(=O)N[C@@H](C)C(=O)N1C: PAMPA -5.52 (log10 cm/s)

2 of these entries, quoted again:

{"smiles": "CCCN1CC(=O)N[C@H](CC(C)C)C(=O)N(C)[C@@H](CC(C)C)C(=O)N2CCC[C@H]2C(=O)N(Cc2ccccc2)CC(=O)N[C@@H](Cc2ccccc2)C(=O)N2CCC[C@@H]2C1=O", "PAMPA (log10 cm/s)": "-5.36"}
{"smiles": "CC(C)C[C@@H]1NC(=O)[C@H](C)N(C)C(=O)[C@H]2CCCN2C(=O)[C@H](Cc2ccccc2)NC(=O)[C@@H](CC(C)C)N(C)C(=O)[C@@H]2CCCN2C(=O)[C@H](CC(C)C)N(C)C1=O", "PAMPA (log10 cm/s)": "-5.17"}